## Apparent affinities of Ab-14 variants for a coronavirus HR2 peptide

Binding partner: SARS-CoV-2 spike HR2 peptide, sequence PDVDLGDISGINAS.

Parent: Ab-14, a human scFv built as VH, a 15-residue (Gly4Ser)3 linker, VL. Only the CDRs of the light chain vary.
VH: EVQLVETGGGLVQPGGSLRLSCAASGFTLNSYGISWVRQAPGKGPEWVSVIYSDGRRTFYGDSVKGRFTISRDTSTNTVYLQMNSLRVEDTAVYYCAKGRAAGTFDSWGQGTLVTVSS
VL: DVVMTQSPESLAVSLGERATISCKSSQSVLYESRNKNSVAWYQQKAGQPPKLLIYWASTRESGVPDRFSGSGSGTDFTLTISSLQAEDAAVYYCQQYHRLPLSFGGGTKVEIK

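The starting antibody came from a phage panning campaign against this peptide. Variants in AAYL50 differ from the parent at up to three CDR positions; double and triple changes were sampled at random. The scFvs were displayed on barcoded MATa yeast, the peptide on MATalpha yeast. After mating in shaken culture at 30 °C for 16 h, diploids were selected and their barcode pairs sequenced. Scores were corrected for input abundance and mapped to Kd with protein pairs of known affinity run in the same pool. The assay was run in three technical replicates.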

Variants are written as CDR1, CDR2 and CDR3 of the light chain (limits as in the source). Parent: KSSQSVLYESRNKNSVA, WASTRES, QQYHRLPLS. The read-out is the apparent dissociation constant on a log10 scale (nM): the lower, the stronger. A mean of the replicates is given; it leaves out those without a signal. "n.d." means that the variant was in the library but no mating with the target was seen in that replicate; the authors take this as a sign of poor binding, and no number exists. Parent in this assay: reference entry 0.65, copy in this library 1.68.

| # | CDR-L1 | CDR-L2 | CDR-L3 | replicates, log10 nM | log10 Kd (nM), mean | control signals |
|---|---|---|---|---|---|---|
| 1 | KSSQSVLYESRNSNSVA | CLSTRES | QQYHRLPLS | 3.27 / 2.66 / 3.46 | 3.13 | 1/9 (5.77) |
| 2 | KSVQSVLYQCRNKNSVA | WASTRES | QQYHRLPLS | n.d. / n.d. / n.d. | n.d. | 1/9 (4.96) |
| 3 | KSSQSVLYESREKNSVA | WASTVES | QQYHRLPLS | 4.68 / 4.42 / 5.72 | 4.94 | 4/9 (5.13) |
| 4 | KSSQSVLYESRNKNSVA | WASTRHC | IQYHRLPLS | 3.82 / n.d. / n.d. | 3.82 | 1/9 (2.77) |
| 5 | KSSQEVLYEPRNKNSVA | WASTRES | QQYHRLPTS | 1.91 / 1.86 / 2.34 | 2.04 | 1/9 (3.74) |
| 6 | KSSQSVLYESRNKNSSA | TAWTRES | QQYHRLPLS | 5.16 / n.d. / n.d. | 5.16 | 4/9 (4.62) |
| 7 | KSSQSVLYENRNKNSVA | WASTRES | QLYHRLVLS | n.d. / n.d. / n.d. | n.d. | 0/9 |
| 8 | KSSQSVLYEMRNKNSVA | WASTRES | QMYVRLPLS | n.d. / n.d. / n.d. | n.d. | 1/9 (3.63) |
| 9 | KSSQCVLYESRYKNSVA | WACTRES | QQYHRLPLS | n.d. / n.d. / n.d. | n.d. | 2/9 (4.24) |
| 10 | KSSQSVLYESRNKNSWY | WASTRES | QQYHRQPLS | n.d. / n.d. / n.d. | n.d. | 0/9 |
| 11 | KSSQSVLYESRLKNSVA | YASTRES | QQYHRLPGS | 2.96 / 2.83 / 2.92 | 2.90 | 2/9 (4.44) |
| 12 | KSSQSVLYESRNKNSVA | GASTRLS | QQYHRLTLS | n.d. / n.d. / n.d. | n.d. | 1/9 (5.34) |
| 13 | KSSQSVLNEMRNKNSVA | WASTRES | QQYHKLPLS | 1.54 / 1.57 / 1.76 | 1.63 | 7/9 (4.22) |
| 14 | KSSQSAFYESRNKPSVA | WASTRES | QQYHRLPLS | n.d. / 3.81 / n.d. | 3.81 | 0/9 |
| 15 | KSMQSVLYESRNKNIVS | WASTRES | QQYHRLPLS | n.d. / n.d. / n.d. | n.d. | 1/9 (2.96) |
| 16 | KSSQSVLYESANKNSVA | WASTVES | QQYHRLYLS | n.d. / n.d. / n.d. | n.d. | 1/9 (4.30) |
| 17 | KSLQSVLYESRNKNSVA | FASTRES | QQEHRLPLS | n.d. / n.d. / n.d. | n.d. | 2/9 (5.01) |
| 18 | KSSQAVLYESRNKNSVA | WASTRES | QYYHRLCLS | n.d. / 3.41 / n.d. | 3.41 | 1/9 (2.86) |
| 19 | KSSQSVLYESRNCNSVA | PATTRES | QQYHRLPLS | n.d. / n.d. / 4.57 | 4.57 | 1/9 (5.54) |
| 20 | KSSQSVLYESRNKNSVA | WASNRES | QQYERLHLS | 3.58 / n.d. / n.d. | 3.58 | 3/9 (3.38) |
| 21 | KSSQSVLYNSRNKNSVA | WASTREK | QQYHRLPLH | 1.31 / 1.39 / 1.56 | 1.42 | 4/9 (4.52) |
| 22 | KSSQSSLYESRNKNLVC | WASTRES | QQYHRLPLS | n.d. / n.d. / n.d. | n.d. | 1/9 (4.05) |
| 23 | KSSQSVLYESRNYNSVA | WASTRES | QQYSRLPLS | 0.54 / 0.98 / 0.82 | 0.78 | 0/9 |
| 24 | KSSQSVLDESRNKNSVE | WASTRES | QQYHRLPLR | n.d. / 2.63 / 4.76 | 3.69 | 1/9 (3.45) |
| 25 | KSSQQVLYESRNWNSVA | WQSTRES | QQYHRLPLS | n.d. / 5.19 / 4.15 | 4.67 | 7/9 (4.09) |
| 26 | KSSQSVLYESRNKNSVA | WASTRES | QDYHYLPNS | 1.81 / 1.78 / 1.69 | 1.76 | 7/9 (4.53) |
| 27 | HSSQSVLYESRNKNSVA | WATERES | QQYHRLPLS | 0.33 / 0.63 / 0.47 | 0.48 | 3/9 (4.63) |
| 28 | KSSQSVLYESRNKNTVA | WASTRES | RQMHRLPLS | 4.31 / n.d. / 3.91 | 4.11 | 3/9 (4.24) |
| 29 | KSSQSVLYESRNKNSCA | WASTRES | QQYHTLPQS | 5.61 / 4.13 / 5.04 | 4.93 | 4/9 (4.87) |
| 30 | KSSASSLYESRNKNSVA | WASTRES | QQSHRLPLS | n.d. / n.d. / n.d. | n.d. | 2/9 (2.53) |
| 31 | GDSQSVLYESRNKNSVA | WASTRES | QQYHRLHLS | n.d. / n.d. / n.d. | n.d. | 0/9 |
| 32 | KSSQSVQYESMNKNSVA | WASTRES | QQYHRLPLF | 0.64 / 0.63 / 0.64 | 0.64 | 4/9 (4.29) |
| 33 | KSSQSVGYEPRNKNSVA | WAPTRES | QQYHRLPLS | n.d. / 3.19 / n.d. | 3.19 | 2/9 (4.23) |
| 34 | KSSQSVLYESRNGNVVA | HASTRES | QQYHRLPLS | 1.76 / 2.18 / 2.44 | 2.13 | 0/9 |
| 35 | KSSQSVLYASRNKNSVA | WASERES | QQYPRLPLS | 1.68 / 1.61 / 1.66 | 1.65 | 3/9 (4.43) |
| 36 | KSSQSVLYDSRNKNMVA | WASARES | QQYHRLPLS | 5.40 / n.d. / 3.15 | 4.27 | 1/9 (3.59) |
| 37 | KSSQSVLYESWNKNSSA | WASTRES | QQPHRLPLS | n.d. / n.d. / n.d. | n.d. | 0/9 |
| 38 | KNSQSVLYHSRNKNSVA | WASTRES | QQYRRLPLS | 2.92 / 4.60 / n.d. | 3.76 | 0/9 |
| 39 | ESSQSVLYESRNKNSVA | WVSTRES | QQYHRLPLS | 3.04 / 5.28 / 3.43 | 3.92 | 1/9 (4.46) |
| 40 | SSSQSVLYESRNKNSVA | WASTRES | MQYHRLTLS | n.d. / n.d. / n.d. | n.d. | 0/9 |
| 41 | KSSQSVLYESRNKNSVA | WASTREF | HQYHVLPLS | 0.78 / 0.94 / 0.84 | 0.85 | 4/9 (3.86) |
| 42 | KSSQSVLYESSNKNSVM | WASTRES | QQYHELPLS | n.d. / 4.40 / 4.67 | 4.53 | 6/9 (4.57) |
| 43 | KSSQSVLYESRNKNSVW | WASTRES | QQYHHLPLS | n.d. / n.d. / n.d. | n.d. | 0/9 |
| 44 | KSSPSVLYESRNKNSVA | WASTRES | FQYHRLPLS | 4.29 / 5.28 / 5.01 | 4.86 | 2/9 (4.02) |

From the list, the first 6 with no signal in any replicate:

CDR-L1,CDR-L2,CDR-L3,"replicates, log10 nM","log10 Kd (nM), mean",control signals
KSVQSVLYQCRNKNSVA,WASTRES,QQYHRLPLS,n.d. / n.d. / n.d.,n.d.,1/9 (4.96)
KSSQSVLYENRNKNSVA,WASTRES,QLYHRLVLS,n.d. / n.d. / n.d.,n.d.,0/9
KSSQSVLYEMRNKNSVA,WASTRES,QMYVRLPLS,n.d. / n.d. / n.d.,n.d.,1/9 (3.63)
KSSQCVLYESRYKNSVA,WACTRES,QQYHRLPLS,n.d. / n.d. / n.d.,n.d.,2/9 (4.24)
KSSQSVLYESRNKNSWY,WASTRES,QQYHRQPLS,n.d. / n.d. / n.d.,n.d.,0/9
KSSQSVLYESRNKNSVA,GASTRLS,QQYHRLTLS,n.d. / n.d. / n.d.,n.d.,1/9 (5.34)

As a blank, each scFv also met three strains without target: over library AAYL50, 18% of these pairings were detected, typically at 4.19 and seldom below 2.99. The control count says in how many pairings with the empty strains this scFv gave a signal, with their mean in brackets.

The measurements come from Engelhart et al. 2022 (doi:10.1038/s41597-022-01779-4) through the FLAb antibody collection.